# Ab-14 heavy chain CDR variants: yeast mating affinities

Antigen: PDVDLGDISGINAS, a 14-residue peptide of the SARS-CoV-2 spike HR2 region.

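Phage display of a naive human antibody library on the peptide gave the parent. Designed CDR sequences, proposed from the first random library and measured here. Several design methods are mixed in this list. The assay is AlphaSeq: two haploid yeast populations carry antibody and antigen on their surface. After mating in shaken culture at 30 °C for 16 h, diploids were selected and their barcode pairs sequenced. Each replicate has its own calibration line, from reference interactions of the BCL2 family. There are six technical replicates.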

Each scFv is VH, a (GGGGS)3 linker, VL, as in the parent Ab-14, and differs from it in the CDRs of the heavy chain only.
VH: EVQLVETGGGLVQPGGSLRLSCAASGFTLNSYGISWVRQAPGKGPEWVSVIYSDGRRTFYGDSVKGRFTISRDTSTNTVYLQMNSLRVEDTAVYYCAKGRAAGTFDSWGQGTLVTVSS
VL: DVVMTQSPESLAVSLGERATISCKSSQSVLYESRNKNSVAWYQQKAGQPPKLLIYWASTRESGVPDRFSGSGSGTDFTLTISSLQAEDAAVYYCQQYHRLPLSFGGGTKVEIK

Each variant is given by its three heavy chain CDRs, as the data file delimits them; those of the parent are GFTLNSYGIS, VIYSDGRRTFYGDSVK, GRAAGTFDS. This list holds designs with more than six substitutions. Scale: log10 of Kd in nM, estimated from mating counts; low values are strong binders. The mean shown is taken over the replicates in which the pair was detected. "no signal" marks a missing value. The strain was present, yet no cells mated with the target were sequenced in any replicate, which points to weak or no binding. The authors averaged sequences with at least three values out of six and counted those with two or fewer as poor binders.

For GMNIDEYGIS, VIYADGMRTAYSNAVK, GIVGGDTTS, the assay gave no signal (0 of 6 replicates; controls 0 of 18).
For GFDIDEYGIS, VIYADGVRTAVDPSFK, GQMAGFFDE, the assay gave no signal (0 of 6 replicates; controls 0 of 18).
For GFDLNEYGIS, VIYADGLRTAYADSVK, GSNAGTFDV, the assay gave -0.62 (6 of 6 replicates; controls 0 of 18).
For GFDLDEYGIS, VIYADGRRTFYADSVK, GEAAGTFDI, the assay gave 0.18 (6 of 6 replicates; controls 0 of 18).
For GQDLDEYGVS, VIYADGQRTQYTNDVK, GNYSGAVII, the assay gave no signal (0 of 6 replicates; controls 1 of 18).
For GDGLSEYGIS, VIYADGFRTAYANDVK, GNAAFGFMV, the assay gave no signal (0 of 6 replicates; controls 0 of 18).
For GFDVDEQGIS, VIYADGLRSMYANSVK, GTIGGMFFQ, the assay gave no signal (0 of 6 replicates; controls 0 of 18).
For GFDLMEYGVS, VIYADGQRAFYTDSVK, GKGAGTALN, the assay gave -0.34 (6 of 6 replicates; controls 0 of 18).
For GFDLNEYGIS, VIYADGRRTAYTDSVK, GEVAGTFDA, the assay gave -0.01 (6 of 6 replicates; controls 0 of 18).
For GFDLNEYGIS, VIYADGRRTAYLDSVK, GEAAGTFDT, the assay gave -0.35 (6 of 6 replicates; controls 0 of 18).
For GFDLNEYGIS, VIYADGQRTVYADSVK, GNNAGTFDV, the assay gave -0.42 (6 of 6 replicates; controls 1 of 18).
For GFSLNEYGIS, VIYADGRRTFYADSVK, GNVAGTFDQ, the assay gave -0.28 (6 of 6 replicates; controls 0 of 18).
For GFDLNEYGIS, VIYADGRRTFYTDSVK, GEFAGTFDQ, the assay gave -0.57 (6 of 6 replicates; controls 0 of 18).
For GFDLNEYGIS, VIYADGVRTAYSDSVK, GQVAGTFDV, the assay gave -0.44 (6 of 6 replicates; controls 0 of 18).
For GFDLNEYGIS, VIYADGKRTAYADDVK, GNVAGTFDA, the assay gave -0.29 (6 of 6 replicates; controls 0 of 18).
For GFDLDEYGVS, VIYADGERKFYADKVK, GTHGETRDI, the assay gave 2.03 (2 of 6 replicates; controls 1 of 18).
For GFDLDEYGIS, VIYADGMRTAYADSVK, GNNAGTFDT, the assay gave 0.02 (6 of 6 replicates; controls 0 of 18).
For GFDLNEYGIS, VIYADGVRTAYADSVK, GENAGSFDV, the assay gave 0.43 (6 of 6 replicates; controls 0 of 18).
For GFDLNEYGIS, VIYADGFRTAYVQQVK, GQHAGSVEV, the assay gave 0.74 (6 of 6 replicates; controls 1 of 18).
For GFGLDEYGIS, VIYADGFRAYYHDNVK, GFNYGVDIL, the assay gave no signal (0 of 6 replicates; controls 0 of 18).
For GFDLNEFGVS, VIYADGSRASYADKVK, GFNFGQLIV, the assay gave no signal (0 of 6 replicates; controls 0 of 18).
For GFDLNEYGIS, VIYADGSRTAYADSVK, GETAGTFDT, the assay gave -0.47 (6 of 6 replicates; controls 0 of 18).
For GFDLNEYGIS, VIYADGMRTVYADSVK, GNEAGTFDI, the assay gave -0.28 (6 of 6 replicates; controls 0 of 18).
For GKDLDEYGIS, VIYADGKRTAYVENVK, GQFGGTLLD, the assay gave 0.39 (2 of 6 replicates; controls 0 of 18).
For GFDLNEYGIS, VIYADGKRTAYTDSVK, GQVAGTFDV, the assay gave -0.19 (6 of 6 replicates; controls 0 of 18).
For GFDLNEYGIS, VIYADGVRTAYTDSVK, GNEAGTFDV, the assay gave -1.02 (6 of 6 replicates; controls 0 of 18).
For GFDLNEYGIS, VIYADGSRTAYADSVK, GQTAGTFDV, the assay gave -1.52 (6 of 6 replicates; controls 1 of 18).
For GFDLNEYGIS, VIYADGRRTAYADSVK, GQNAGTFDM, the assay gave -0.38 (6 of 6 replicates; controls 0 of 18).
For GFDLNEYGIS, VIYADGRRTSYADSVK, GNQAGTFDV, the assay gave 0.17 (6 of 6 replicates; controls 0 of 18).
For GFNLNEYGIS, VIYADGKRTFYADSVK, GQVAGTFDM, the assay gave -0.64 (6 of 6 replicates; controls 0 of 18).
For GFDLNEYGIS, VIYADGMRTFYIDSVK, GEQAGTFDL, the assay gave -0.24 (6 of 6 replicates; controls 0 of 18).
For GQSLNEYGIS, VIYADGHRKMYANDVK, GKQGAIFED, the assay gave no signal (0 of 6 replicates; controls 0 of 18).
For GFDLNEYGIS, VIYADGRRTAYSDSVK, GNQAGTFDL, the assay gave 0.04 (6 of 6 replicates; controls 1 of 18).
For GFDLDEYGIS, VIYADGRRTFYADSVK, GSNAGTFDM, the assay gave -1.00 (6 of 6 replicates; controls 0 of 18).
For SFCFNSYGIS, VIYWDGMRLFYEDSVK, GRAAGWFNS, the assay gave no signal (0 of 6 replicates; controls 0 of 18).
For GFDLEEYGIS, VIYADGVRTAYSDSVK, GNVAGTFDV, the assay gave 0.01 (6 of 6 replicates; controls 0 of 18).
For GFDLNEYGIS, VIYADGQRTAYADSVK, GKVAGTFDT, the assay gave -0.43 (6 of 6 replicates; controls 1 of 18).
For GFDLNEYGIS, VIYADGKRTFYADSVK, GNAAGTFNV, the assay gave -0.03 (6 of 6 replicates; controls 0 of 18).
For GFGLDEYGIS, VIYADGNRQMYTDSVK, GFNLMLVSV, the assay gave no signal (0 of 6 replicates; controls 0 of 18).
For GEDLGEYGIS, VIYADGVRASYIDSVK, GESTGFVDV, the assay gave no signal (0 of 6 replicates; controls 0 of 18).

The first 3 variants above that were never detected:

The variant GMNIDEYGIS, VIYADGMRTAYSNAVK, GIVGGDTTS gave no signal (0 of 6 replicates; controls 0 of 18).
The variant GFDIDEYGIS, VIYADGVRTAVDPSFK, GQMAGFFDE gave no signal (0 of 6 replicates; controls 0 of 18).
The variant GQDLDEYGVS, VIYADGQRTQYTNDVK, GNYSGAVII gave no signal (0 of 6 replicates; controls 1 of 18).

As a blank, each scFv also met three strains without target: over all heavy chain designs, 1% of these pairings were detected, typically at 2.08 and seldom below 0.84. For each scFv, signals with the empty controls are counted beside the result. The range of this assay differs from that of the first round, and the authors advise against merging the two.

Values reported by Li et al. 2023, doi:10.1038/s41467-023-39022-2 (FLAb copy).